Source: patent publication US20010053848A1, “Hetero-oligomeric G protein-coupled receptors as novel drug targets” (priority 2000, published 2001)

The chains behind the UniProt entries cited, without tags or fusion partners. Where a name states a change or a piece, a line headed by the entry shows the natural chain unless it says otherwise.
UniProt P35346: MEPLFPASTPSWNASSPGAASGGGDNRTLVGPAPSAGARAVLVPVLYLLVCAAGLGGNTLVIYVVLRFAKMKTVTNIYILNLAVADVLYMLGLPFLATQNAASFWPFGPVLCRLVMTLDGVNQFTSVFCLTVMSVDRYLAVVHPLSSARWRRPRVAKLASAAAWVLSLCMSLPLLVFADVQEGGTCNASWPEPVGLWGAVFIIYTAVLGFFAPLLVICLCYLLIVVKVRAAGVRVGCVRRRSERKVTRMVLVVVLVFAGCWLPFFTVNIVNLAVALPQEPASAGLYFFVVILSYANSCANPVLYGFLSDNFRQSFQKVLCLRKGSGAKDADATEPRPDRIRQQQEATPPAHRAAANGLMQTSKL
UniProt P41143, whole entry: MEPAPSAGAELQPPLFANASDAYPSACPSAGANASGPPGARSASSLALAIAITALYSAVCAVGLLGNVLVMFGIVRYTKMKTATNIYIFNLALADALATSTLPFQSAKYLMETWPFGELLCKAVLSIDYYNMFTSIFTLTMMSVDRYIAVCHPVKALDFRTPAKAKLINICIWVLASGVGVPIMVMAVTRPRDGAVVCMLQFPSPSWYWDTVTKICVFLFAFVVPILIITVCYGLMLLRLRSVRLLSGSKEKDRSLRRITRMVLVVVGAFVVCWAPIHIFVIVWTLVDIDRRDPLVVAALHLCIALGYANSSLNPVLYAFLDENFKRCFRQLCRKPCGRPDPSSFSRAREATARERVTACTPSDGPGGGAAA

Columns and labels:
wild type hSSTR5 and DOR = wild type hSSTR5 and DOR (Homo sapiens, UniProt P35346+P41143)
[1] = biological target: T1, DOR and SSTR5 hetero-oligomer (Homo sapiens, UniProt P35346+P41143); test: Inhibition of FSK-stimulated cAMP, hSSTR5/DOR cotransfectants; assay type: cell-based; conditions: agonist alone or both agonists simultaneously
T1 construct: expressed in transfected cells

Substance: [D-Pen^2,5]-Enkephalin [DPDPE]
- effect on inhibition of radioligand binding induced by GTPγS (wild type hSSTR5 and DOR; [125I] LTT SST-28 radioligand): potentiated
- G-protein coupling efficiency (wild type hSSTR5 and DOR; enhancement by DOR ligand): 2 fold
- maximum inhibition of FSK-stimulated cAMP [1]: 32±3%
